# According to PubChem BioAssay AID2101 (National Center for Advancing Translational Sciences (NCATS), 2009):
# The list shows a part of the results, in another mix than the full data. Results filed as inconclusive are left out. Activity calls are given as the source filed them. Calls come from the whole dose curve; as a rule, active = well fitted inhibition curve with a large enough effect; inconclusive = small, poorly fitted or top-dose-only effect, or effect the other way, or another doubt; inactive = no such curve, though single readings can be large or run the other way.
# Target: Lysosomal acid glucosylceramidase (Homo sapiens) (UniProt P04062)
# Experiment: qHTS Assay for Inhibitors and Activators of N370S glucocerebrosidase as a Potential Chaperone Treatment of Gaucher Disease;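 note: 0% = full enzyme activity and -100% = no enzyme basal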
# Details: N370S GC spleen homogenate, 4MU-glucoside fluorescence; at 59.4 µM (top of the series)
# From the text: NIH Chemical Genomics Center [NCGC]
# NIH Molecular Libraries Probe Production Centers Network [MLPCN]
# Assay Submitter (PI): Wei Zheng
# Glucocerebrosidase (GC) catalyzes the hydrolysis of beta-glucocerebroside to glucose and ceramide in lysosomes. Mutations in the glucocerebrosidase gene result in Gaucher disease, an autosomal recessive lysosomal storage disorder. Many of the mutations encountered in patients with Gaucher disease are missense alterations that may cause misfolding, decreased stability and/or mistrafficking of this lysosomal protein. […] These inhibitors include iminosugar analogs and three non-iminosugar inhibitors identified from a previous HTS of 62,000 compounds with the wild type recombinant enzyme. However, the enhancement of enzyme activity by the chaperone action of an enzyme inhibitor must be balanced against the direct inhibition of the enzyme. An enzyme activator could also function as a chaperone by binding to the enzyme and helping to correct its misfolding and mistrafficking. While activators for GC have not yet been identified, they may have better therapeutic potential than inhibitors. Therefore the discovery and development of chemical activators may provide a new strategy for the chaperone therapy.
# We have optimized a new assay using N370S mutant GC derived from the spleen of a Gaucher patient. […] In addition, the MLPCN compound library has expanded, which increases the chance of finding new and better probes.
# NCGC Assay Protocol Summary:
# This is a fluorogenic enzyme assay with 4-methylumbelliferyl-beta-D-glucopyranoside as the substrate and N370S glucocerebrosidase from human spleen homogenate as the enzyme preparation. Upon the hydrolysis of this fluorogenic substrate, the resulting product, […] which can be detected by a standard fluorescence plate reader. Data were normalized to the controls for basal activity (without enzyme) and 100% activity (with enzyme). The AC50 values were determined from concentration-response data modeled with the standard Hill equation.
# Assay buffer: 50 mM citric acid (titrated with potassium phosphate to pH 5.0), 100 mM potassium chloride, 10 mM sodium chloride, 1 mM magnesium chloride, 0.01% Tween-20.
# 1536-well assay protocol:
# (1) Add 2 ul/well of spleen homogenate (27 ug final)
# (2) Add 23 nL compounds in DMSO solution. The final titration was 0.5 nM to 58 uM.
# (3) Add 2 ul of substrate (1 mM final)
# (4) Incubate at 37C for 40 min.
# (5) Add 2 ul stop solution (1M NaOH and 1M Glycine mixture, pH 10)
# (6) Detect the assay plate in a ViewLux plate reader (PerkinElmer) with Ex=365 nm and Em=440nm.
# Keywords: Glucocerebrosidase, beta-glucosidase, Gaucher Disease, pharmacological chaperone, chaperone therapy, high throughput screening, glucocerebrosidase inhibitor, MLSMR, MLSCN, NIH Roadmap, qHTS and NCGC
row,SMILES,"activity change, negative = inhibition"
1,CC(C)c1ccc(NC2CCN(C(=O)OC(C)(C)C)CC2)cc1,inactive: 8.34%
2,COc1ccc(CN(CCCl)CCCl)cc1Cl,inactive: 22.3%
3,CN(C)c1cccc(C(=O)NCC2(N3CCCCC3)CCCCC2)c1,inactive: -2.72%
4,O=[N+]([O-])c1cc([N+](=O)[O-])c(OC2CCCCC2O)c([N+](=O)[O-])c1 (stereo not drawn),inactive: -12.5%
5,COc1cc(OC)c(C(=O)NCC2(N(C)C)CCCCC2)cc1OC,inactive: 1.34%
6,CCOP(=O)(Cl)Cl,inactive: 1.08%
7,CCOC(=O)N1CCC(Nc2ccc(C)cc2)CC1,inactive: 1.73%
8,N/C(=N\O)c1c(N)no[n+]1[O-],inactive: 4.94%
9,O=C(OC1CN2CCC1CC2)C1c2ccccc2C=Cc2ccccc21 (stereo not drawn),inactive: -17.4%
10,CCc1cc(C(=O)NCC2(N3CCCCC3)CCCCC2)sc1C,inactive: -9.19%
11,O=C(O)c1cccc(Nc2c([N+](=O)[O-])cc([N+](=O)[O-])cc2[N+](=O)[O-])c1,inactive: -23.5%
12,COc1ccc(C(=O)NCC2(N3CCOCC3)CCCCC2)cc1OC,inactive: 9.91%
13,ClCCOP(OCCCl)OCCCl,inactive: -1.61%
14,CN(C)C1(CNC(=O)c2cccc(C#N)c2)CCCCC1,inactive: -10.3%
15,c1ccc(CN2CCC(Nc3ccccc3)CC2)cc1,inactive: -1.46%
16,CCCN1CCC(Nc2cc(OC)cc(OC)c2)CC1,inactive: -19.4%
17,N#Cc1ccc(C(=O)NCC2(N3CCCCC3)CCCCC2)cc1,inactive: -14.7%

row,SMILES,"activity change, negative = inhibition"
1,CC(C)(C)OC(=O)N1CCC(N(C(=O)c2ccccc2)c2ccc(Cl)cc2)CC1,inactive: -11.8%
2,CCOC(=O)C(CC)C1=NC(C)(C)Cc2ccccc21.O=[N+]([O-])c1cc([N+](=O)[O-])c(O)c([N+](=O)[O-])c1 (stereo not drawn),inactive: -11.5%
3,CCN1CCC(Nc2cccc(F)c2)CC1,inactive: 0.776%
4,CN(C)c1ccc(C(=O)NCC2(N3CCCCC3)CCCCC2)cc1,inactive: 6.87%
5,COc1cc(OC)cc(C(=O)NCC2(N3CCCCC3)CCCCC2)c1,inactive: -0.432%
6,Cc1ccc(C(=O)NCC2(N3CCCCC3)CCCCC2)o1,inactive: -20%
7,Fc1ccccc1NC1CCN(Cc2ccccc2)CC1,inactive: -2.77%
8,COc1cccc(C(=O)N(c2cc(C)cc(C)c2)C2CCN(C(=O)OC(C)(C)C)CC2)c1,inactive: -14.7%
9,COc1cc(OC)cc(C(=O)NCC2(N3CCOCC3)CCCCC2)c1,inactive: 1.58%
10,CCC(CO)(C(=O)OC1CN2CCC1CC2)c1ccccc1 (stereo not drawn),inactive: -2.13%
11,CN1CCC(Nc2ccc(Cl)cc2)CC1,inactive: -15.9%
12,CCCOc1ccc(C)cc1CN(CCCl)CCCl,inactive: -16.7%
13,CCOc1ncccc1C(=O)NCC1(N2CCOCC2)CCCCC1,inactive: 2.03%
14,CC(C)(C)OC(=O)N1CCC(Nc2ccccc2)CC1,inactive: 0.0863%
15,O=C(O)C1(Nc2ccccc2)CCN(Cc2ccccc2)CC1,inactive: -24.5%
16,CCCOc1ccc(C(=O)NCC2(N(C)C)CCCCC2)cc1,inactive: -6.76%
